The target in this assay is PI3Kβ (Homo sapiens (Human), UniProt P42338). As to the kind of experiment: In vitro enzyme inhibition assay (Kinase Glo based enzyme activity assay). Format: biochemical. The note with it: for IC50: Test (a). As to the method:
(a) In Vitro Enzyme Inhibition Assay
The inhibition of PI3Kβ, PI3Kα, PI3Kγ and PI3Kδ was evaluated in a Kinase Glo based enzyme activity assay using human recombinant enzymes. The assay measures depletion of ATP after incubation with enzyme, PIP2 and ATP plus compound. ATP at the end of the reaction is detected by addition of Kinase Glo reagent, in this the Ultra Glo™ luciferase (Promega) uses the ATP as a substrate to catalyze the mono-oxygenation of luciferin and the generation of light. A direct relationship exists between the luminescence measured with the Kinase-Glo Plus Reagent and the amount of ATP remaining in a completed kinase reaction and luminescence is inversely related to kinase activity. Twelve different compound concentrations were tested and raw data from the inhibition of PI3 Kb, PI3Kα, PI3Kγ and PI3Kδ was plotted versus inhibitor concentration.
Compounds in 100% DMSO were added to assay plates by acoustic dispensing. PI3Kβ was added in a Tris buffer (50 mM Tris pH7.4, 0.05% CHAPS, 2.1 mM DTT, and 10 mM MgCl2) and allowed to preincubate with compound for 20 minutes prior to addition of substrate solution containing PIP2 and ATP. The enzyme reaction was stopped after 80 minutes by the addition of Kinase Glo detection solution. Plates were left for 30 minutes at room temperature then read on a Pherastar Instrument (Luminescence ATP 384 program) setting gain on max well. The final concentration of DMSO, ATP and PIP2 in the assay were, 1%, 80 μM, and 80 μM respectively.
IC50 values were calculated using a log curve fitting to a non-linear regression package, fitting raw data to inhibitor concentration.

Amino acid sequences for entries named in this document (tags omitted). A change or cut given only in a name is not applied to a line headed by its entry.
UniProt P42338: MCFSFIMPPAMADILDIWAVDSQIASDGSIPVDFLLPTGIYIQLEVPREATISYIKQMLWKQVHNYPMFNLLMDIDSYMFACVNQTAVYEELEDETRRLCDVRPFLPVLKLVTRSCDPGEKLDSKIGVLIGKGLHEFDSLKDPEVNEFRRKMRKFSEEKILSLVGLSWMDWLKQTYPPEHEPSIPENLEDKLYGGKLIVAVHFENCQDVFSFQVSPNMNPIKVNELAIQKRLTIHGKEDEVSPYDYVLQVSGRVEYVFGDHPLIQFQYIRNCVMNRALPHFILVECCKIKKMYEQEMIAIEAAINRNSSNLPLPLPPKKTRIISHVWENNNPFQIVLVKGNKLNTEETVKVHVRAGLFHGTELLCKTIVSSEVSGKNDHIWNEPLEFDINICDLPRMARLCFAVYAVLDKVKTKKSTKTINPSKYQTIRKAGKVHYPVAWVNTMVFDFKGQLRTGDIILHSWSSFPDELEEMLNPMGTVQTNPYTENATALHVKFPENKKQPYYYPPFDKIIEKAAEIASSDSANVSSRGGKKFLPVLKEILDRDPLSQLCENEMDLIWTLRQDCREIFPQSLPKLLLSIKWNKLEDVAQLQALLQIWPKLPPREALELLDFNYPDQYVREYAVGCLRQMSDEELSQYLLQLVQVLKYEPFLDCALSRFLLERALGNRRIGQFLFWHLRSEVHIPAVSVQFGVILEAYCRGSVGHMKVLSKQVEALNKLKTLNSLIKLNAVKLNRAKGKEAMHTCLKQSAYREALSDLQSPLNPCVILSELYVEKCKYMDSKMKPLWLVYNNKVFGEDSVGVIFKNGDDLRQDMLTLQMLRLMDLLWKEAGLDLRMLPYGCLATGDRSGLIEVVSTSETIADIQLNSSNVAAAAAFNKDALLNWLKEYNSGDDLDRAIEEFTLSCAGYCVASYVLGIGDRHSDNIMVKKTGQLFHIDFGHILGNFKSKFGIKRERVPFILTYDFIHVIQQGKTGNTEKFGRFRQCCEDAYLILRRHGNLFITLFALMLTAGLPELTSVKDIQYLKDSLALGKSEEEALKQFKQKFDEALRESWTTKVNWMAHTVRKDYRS

The mark [1] stands for this setting: approximate value, read-out: IC50 versus PI3Kβ.
Where [2] appears, read: human recombinant enzyme, read-out: PI3Kβ inhibition, IC50.

Like-named read-outs stand apart in the source and are kept apart here.

With `CC(Nc1cc(F)cc(F)c1)c1cc(C(=O)N(C)C)cc2c(=O)cc(N3CCOCC3)oc12` (racemic) [Example 3.06, 8-(1-(3,5-difluorophenylamino)ethyl)-N,N-dimethyl-2-morpholino-4-oxo-4H-chromene-6-carboxamide], the IC50 is, setting by setting: under setting [1], approximately 6 nM; under setting [2], 6 nM.

On to `CC(Nc1cc(F)cc(F)c1)c1cc(C(=O)N(C)C)cc2c(=O)cc(N3CCOCC3)oc12` (single isomer, unassigned) [Example 3.06a, 8-(1-(3,5-difluorophenylamino)ethyl)-N,N-dimethyl-2-morpholino-4-oxo-4H-chromene-6-carboxamide], for which the “activity of enantiomer relative to the other enantiomer” value (PI 3-kinase inhibitory activity, (+) versus (−) enantiomer of Example 3.06) is on record as “weaker activity”. In addition, the IC50 under setting [2] was determined as 3700 nM.

As for `CC(c1cc(C(=O)N(C)C)cc2c(=O)cc(N3CCOCC3)oc12)N(C)c1cc(F)cc(F)c1` (single isomer, unassigned) [Example 5.0b, 8-(1-((3,5-difluorophenyl)(methyl)amino)ethyl)-N,N-dimethyl-2-morpholino-4-oxo-4H-chromene-6-carboxamide], the IC50 under setting [2] was found to be 1240 nM.

With `CC(Nc1cc(F)cc(F)c1)c1cc(C(=O)N(C)C)cc2c(=O)cc(N3CCOCC3)oc12` (single isomer, unassigned; (-)) [Example 3.06b, (−)-8-(1-(3,5-difluorophenylamino)ethyl)-N,N-dimethyl-2-morpholino-4-oxo-4H-chromene-6-carboxamide], the IC50 was approximately 2 nM under setting [1] and 2 nM under setting [2].

Take `CC(Nc1cccc(F)c1)c1cc(C(=O)N(C)C)cc2c(=O)cc(N3CCOCC3)oc12` (centres unmarked) [Example 3.12, 8-(1-(3-fluorophenylamino)ethyl)-N,N-dimethyl-2-morpholino-4-oxo-4H-chromene-6-carboxamide]: the 50% inhibitory concentration (IC50) under setting [2] turned out to be 7 nM.

`CC(Nc1cc(F)cc(Cl)c1)c1cc(C(=O)N(C)C)cc2c(=O)cc(N3CCOCC3)oc12` (centres unmarked) [Example 3.14, 8-(1-(3-chloro-5-fluorophenylamino)ethyl)-N,N-dimethyl-2-morpholino-4-oxo-4H-chromene-6-carboxamide]: the IC50 under setting [2] was 4 nM.

`CC(Nc1cc(F)cc(C#N)c1)c1cc(C(=O)N(C)C)cc2c(=O)cc(N3CCOCC3)oc12` (centres unmarked) [Example 3.17, 8-(1-(3-cyano-5-fluorophenylamino)ethyl)-N,N-dimethyl-2-morpholino-4-oxo-4H-chromene-6-carboxamide]: the IC50 under setting [2] stood at 6 nM.

`CC(Nc1cc(F)cc(F)c1)c1cc(C(=O)N2CCC2)cc2c(=O)cc(N3CCOCC3)oc12` (centres unmarked) [Example 4.08, 6-(azetidine-1-carbonyl)-8-(1-(3,5-difluorophenylamino)ethyl)-2-morpholino-4H-chromen-4-one]: the IC50 under setting [2] is 5 nM.

The values above are taken from US8673906B2, “Chromenone derivatives” (AstraZeneca AB, priority 2010, dated 2014).
